# Values quoted from earlier work as cited in article PMC6825517 (Journal of medicinal chemistry, 2019).
# Test system: 468 kinases
# Conditions: at 3 μM; cited from earlier work
structure (smiles),measurement,value
CCN(CC)CCNC(=O)c1c(C)[nH]c(/C=C2\C(=O)Nc3ccc(F)cc32)c1C [Sunitinib],S(35) score,0.57
